Results taken from publication PMC4080450, “The pseudo GTPase CENP-M drives human kinetochore assembly” (eLife, 2014).

B1: CENP-H (natural protein, human, UniProt Q9H3R5 1-247, looked up)
chain: MEEQPQMQDADEPADSGGEGRAGGPPQVAGAQAACSEDRMTLLLRLRAQTKQQLLEYKSMVDASEEKTPEQIMQEKQIEAKIEDLENEIEEVKVAFEIKKLALDRMRLSTALKKNLEKISRQSSVLMDNMKHLLELNKLIMKSQQESWDLEEKLLDIRKKRLQLKQASESKLLEIQTEKNKQKIDLDSMENSERIKIIRQNLQMEIKITTVIQHVFQNLILGSKVNWAEDPALKEIVLQLEKNVDMM
notes: human CENP-H, cDNA segment, without any tag; source: Tnao38 insect cells (baculovirus), co-expressed with the other subunits; co-purified, or in lysate for the GST pull-down
B2: CENP-K (untagged, of the CENP-HI^57–CKM complex) (natural protein, human, UniProt Q9BS16 1-269, looked up)
chain: MNQEDLDPDSTTDVGDVTNTEEELIRECEEMWKDMEECQNKLSLIGTETLTDSNAQLSLLIMQVKCLTAELSQWQKKTPETIPLTEDVLITLGKEEFQKLRQDLEMVLSTKESKNEKLKEDLEREQRWLDEQQQIMESLNVLHSELKNKVETFSESRIFNELKTKMLNIKEYKEKLLSTLGEFLEDHFPLPDRSVKKKKKNIQESSVNLITLHEMLEILINRLFDVPHDPYVKISDSFWPPYVELLLRNGIALRHPEDPTRIRLEAFHQ
notes: human CENP-K, untagged; source: TnAo38 insect cells, co-expressed with CENP-H, CENP-I 57-756 and CENP-M, co-purified (Talon, Resource S, Superdex 200)
B3: CENP-M (of the CENP-HI^57–CKM complex) (natural protein, human, UniProt Q9NSP4 1-180, looked up)
chain: MSVLRPLDKLPGLNTATILLVGTEDALLQQLADSMLKEDCASELKVHLAKSLPLPSSVNRPRIDLIVFVVNLHSKYSLQNTEESLRHVDASFFLGKVCFLATGAGRESHCSIHRHTVVKLAHTYQSPLLYCDLEVEGFRATMAQRLVRVLQICAGHVPGVSALNLLSLLRSSEGPSLEDL
notes: human CENP-M isoform 1 (cDNA segment), 2nd MCS of the CENP-I vector; no tag is named; source: TnAo38 insect cells, co-expressed with CENP-H, CENP-K and CENP-I 57-756, co-purified (Talon, Resource S, Superdex 200)

How the values were obtained:
[1] = molecular target: T1, CENP-I^57–C (of the CENP-HI^57–CKM complex) (human, UniProt Q92674 57-756); assay: SEC; subunits co-expressed in insect cells, complex co-purified by the His tag of one subunit and ion exchange, then SEC on Superdex 200 in 150 mM NaCl; settings: both partners purified
T1 construct: human CENP-I residues 57-756, codon optimised; also called CENP-I 57-756; not shown: His6, N-terminal, cleaved
T1 sequence (looked up): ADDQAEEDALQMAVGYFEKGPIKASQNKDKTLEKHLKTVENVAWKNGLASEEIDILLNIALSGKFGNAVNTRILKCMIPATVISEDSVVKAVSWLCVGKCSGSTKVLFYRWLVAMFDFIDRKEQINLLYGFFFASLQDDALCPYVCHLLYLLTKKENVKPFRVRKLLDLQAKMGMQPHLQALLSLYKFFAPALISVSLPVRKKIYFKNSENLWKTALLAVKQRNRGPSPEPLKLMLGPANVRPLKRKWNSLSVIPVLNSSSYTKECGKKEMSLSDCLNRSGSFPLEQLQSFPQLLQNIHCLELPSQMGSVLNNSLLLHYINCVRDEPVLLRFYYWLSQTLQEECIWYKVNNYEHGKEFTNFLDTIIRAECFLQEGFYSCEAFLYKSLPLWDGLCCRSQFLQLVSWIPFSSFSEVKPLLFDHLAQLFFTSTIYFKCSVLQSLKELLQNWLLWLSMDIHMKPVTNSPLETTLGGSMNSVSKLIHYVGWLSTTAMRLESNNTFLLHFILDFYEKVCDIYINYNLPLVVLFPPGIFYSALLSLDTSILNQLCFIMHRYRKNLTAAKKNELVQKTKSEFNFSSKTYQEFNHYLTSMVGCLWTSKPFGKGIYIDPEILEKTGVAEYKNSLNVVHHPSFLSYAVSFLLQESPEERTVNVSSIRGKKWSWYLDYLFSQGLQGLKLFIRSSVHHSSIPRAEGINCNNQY

[2] = molecular target: T2, CENP-K (of the CENP-H/K complex, His tag cleaved) (human, UniProt Q9BS16 1-269); assay: static light scattering; static light scattering analysis of the purified CENP-H/K complex; settings: both partners purified
T2 construct: human CENP-K, cDNA segment; source: Tnao38 insect cells, co-expressed with CENP-H, purified (Ni-NTA, TEV cleavage, Resource Q, Superdex200 SEC); not shown: His6, N-terminal, cleaved
T2 sequence (looked up): B2 chain

Row | Binder | stoichiometry N [1] | stoichiometry N [2]
1 | B1 | 1 | 1
2 | B2 | 1 | 
3 | B3 | 1 | 
